Literature values as cited in patent publication US11149040B2, “Fused triazole agonists of the APJ receptor” (AMGEN INC., priority 2017, dated 2021).

Details: cited from earlier work

Apelin-13
plasma half-life: < 5 min
